Source: article PMC3624423

B1: recombinant full-length human SAMHD1(1–626), wild type [human] / itself (parent)
chain: MQRADSEQPSKRPRCDDSPRTPSNTPSAEADWSPGLELHPDYKTWGPEQVCSFLRRGGFEEPVLLKNIRENEITGALLPCLDESRFENLGVSSLGERKKLLSYIQRLVQIHVDTMKVINDPIHGHIELHPLLVRIIDTPQFQRLRYIKQLGGGYYVFPGASHNRFEHSLGVGYLAGCLVHALGEKQPELQISERDVLCVQIAGLCHDLGHGPFSHMFDGRFIPLARPEVKWTHEQGSVMMFEHLINSNGIKPVMEQYGLIPEEDICFIKEQIVGPLESPVEDSLWPYKGRPENKSFLYEIVSNKRNGIDVDKWDYFARDCHHLGIQNNFDYKRFIKFARVCEVDNELRICARDKEVGNLYDMFHTRNSLHRRAYQHKVGNIIDTMITDAFLKADDYIEITGAGGKKYRISTAIDDMEAYTKLTDNIFLEILYSTDPKLKDAREILKQIEYRNLFKYVGETQPTGQIKIKREDYESLPKEVASAKPKVLLDVKLKAEDFIVDVINMDYGMQEKNPIDHVSFYCKTAPNRAIRITKNQVSQLLPEKFAEQLIRVYCKKVDRKSLYAARQYFVQWCADRNFTKPQDGDVIAPLITPQKKEWNDSTSVQNPTRLREASKSRVQLFKDDPM

Variants of: B1
Experiment: size exclusion chromatography (tetramer peak height)
Settings: with itself, SAMHD1 250 nm, flow rate 0.8 ml/min, read off a plot
[1] = dGTP 50 μm (first point of the 50–200 μm series)
[2] = dGTP 200 μm (last point of the 50–200 μm series)

| Variant | response [1] | response [2] |
| --- | --- | --- |
| chain 1 L620A F621A | 26 mV | 100 mV |
| chain 1 H206R D207N | 67 mV | 140 mV |

Now from value to variant:

| response [1] | response [2] | Variant |
| --- | --- | --- |
| 0 mV | 0 mV | chain 1 D137A |
| 15 mV | 67 mV | chain 1 V618A Q619A |
